Earlier results as cited in US20050192349A1, “Isolation of the peroxisome proliferation-activated receptor-gamma (PPARgamma) ligand and methods of use thereof” (Beth Israel Deaconess Medical Center, Inc., priority 2002, published 2005).

Amino acid sequences for entries named in this document (tags omitted).
UniProt P37231, whole entry: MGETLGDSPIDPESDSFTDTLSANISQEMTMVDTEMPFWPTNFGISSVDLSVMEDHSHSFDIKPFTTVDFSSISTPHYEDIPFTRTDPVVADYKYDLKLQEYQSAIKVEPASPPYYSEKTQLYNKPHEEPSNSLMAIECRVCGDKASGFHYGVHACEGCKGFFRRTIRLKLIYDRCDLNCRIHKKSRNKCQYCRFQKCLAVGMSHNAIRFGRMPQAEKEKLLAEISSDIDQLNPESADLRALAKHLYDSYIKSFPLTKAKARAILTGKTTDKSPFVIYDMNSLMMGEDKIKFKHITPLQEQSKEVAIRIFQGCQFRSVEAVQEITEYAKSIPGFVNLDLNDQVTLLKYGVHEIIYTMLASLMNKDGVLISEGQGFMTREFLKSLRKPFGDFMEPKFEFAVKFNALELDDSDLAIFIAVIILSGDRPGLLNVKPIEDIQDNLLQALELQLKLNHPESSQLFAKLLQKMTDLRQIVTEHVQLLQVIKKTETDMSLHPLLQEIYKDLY

Tests used:
[1] = target: PPARγ (Homo sapiens, UniProt P37231); details: read-out: Ki for displacing rosiglitazone; cited from earlier work
[2] = target: SRC-1 / synthetic agonist-bound PPARγ (Homo sapiens, UniProt P37231); details: cited from earlier work

For `C=CCn1cc([N+](=O)[O-])sc1=NC(=O)C(C)(C)C` [PD068235], the Ki [1] is listed as 1 µM and the “interaction of coactivator SRC-1 with synthetic agonist-bound PPARγ” value [2] is listed as “inhibit the interaction of coactivator SRC-1 with synthetic agonist-bound PPARγ”.
